{
  "source": "patent US12414996B2",
  "about": "“Organic anion transporting peptide-based cancer imaging and therapy” (Da Zen Theranostics, Inc., priority 2014, dated 2025)",
  "settings": "prevention and inhibition studies, subcutaneous PC3 and MIAPaCa tumors; 10 mg/kg twice a week i.p.",
  "text": "(§1) Arrows indicate the onset of treatments. * p<0.05; ** p<0.01; *** p<0.001.\nas §1",
  "data": [
    {"substance": "IR-783-gemcitabine [DZ-1-gemcitabine]", "values": [
      {"measurement": "impact on mouse body weights", "result": "less impact on mouse body weights, as compared with Gemcitabine"}
    ]}
  ]
}
